From patent publication US6649595B2, “Regulation of biological events using novel compounds” (ARIAD Gene Therapeutics, Inc., priority 1995, dated 2003)

System: HT1080 cells transfected with ZFHD1-3FKBP, 1FRB-p65 (wild-type or mutant FRB) and SEAP reporter gene
Test: Rapalog-dependent SEAP transcriptional activation in transiently transfected cells
Conditions: engineered HT1080 cells

Substance: 13F, 28-F-rapamycin [Compound 108]
- stimulation of SEAP expression: stimulate expression
